# Laboratory results taken from US6743446B2, “Methods for stabilizing biologically active agents encapsulated in biodegradable controlled-release polymers” (The Ohio State University Research Foundation, priority 1999, dated 2004).
# Legend:
# [1] = rhBMP-2 solubility in water with heparin; format: physicochemical; conditions: weight ratio of heparin/rhBMP-2 above 4
# Description: To prepare the rhBMP-2/PLGA microspheres by the standard water-in-oil-in-water emulsion method, one major difficulty is the low aqueous solubility of rhBMP-2 at neutral pH, which prevents attainment of a high loading of rhBMP-2 in PLGA microspheres. To overcome this problem, the first approach was to add heparin as a polyanion to increase rhBMP-2 solubility at neutral pH. […] Therefore a heparin-rhBMP-2 complex (heparin/rhBMP-2 ration 7) was co-encapsulated with BSA into PLGA microspheres. […] The second approach was to decrease the pH in the buffer to increase rhBMP-2 solubility. Since BSA is not stable at low pH, obviously BSA is not a good candidate as a bulk excipient for rhBMP-2 delivery from PLGA microspheres. […] Therefore, 400 μl of water was directly added to one vial of rhBMP-2 lyophilized cake to prepare a 20 mg/ml rhBMP-2 solution containing a high concentration of salts at pH 4.5. Although rhBMP-2 is a relatively stable growth factor at an acidic pH below room temperature, rhBMP-2 may not survive when exposed to both body temperature and acidic microclimate caused by PLGA degradation (e.g., pH<2).
# rats = assay: In vivo osteogenesis of subcutaneously implanted BMP-2 devices; conditions: BSA/Mg(OH)2-containing PLGA formulation implanted subcutaneously, data not shown
# Description: In both cases, a controlled release of protein was observed over 28 days (data not shown) resulting in a recovery (released+soluble residue fraction) of >80% (Table 3). In contrast, when the base was removed from the formulation (18% gum arabic), only 30% protein was recovered by the immunoassay. Therefore, the stability characteristic of BMP-2 in PLGA millicylinders was very similar to that of bFGF (although additional stabilizers were used for bFGF) with and without the addition of the basic additive. For both growth factors, in the absence of basic additive, the protein was released mostly on the first day and only a small amount of protein could be recovered from the polymer after 28 days release. In the presence of the basic salt, both proteins were continuously released with >80% recoverable in the 28-day experiment. Moreover, the in vivo biological activities (angiogenesis in nude mice for the bFGF and osteogenesis in rats for the BMP-2) of the BSA/Mg(OH)2-containing formulations were also confirmed when the devices were implanted subcutaneously (data not shown).
substance,measurement,setting,value
rhBMP-2: recombinant human bone morphogenetic protein-2,rhBMP-2 concentration remaining soluble in water,[1],≥ 20 mg/mL
same,"in vivo biological activity, osteogenesis",rats,confirmed
